Results on one compound are retold here after US20190070268A1, “ABUSE-DETERRENT PHARMACEUTICAL COMPOSITIONS” (priority 2016, published 2019).

This assay has as its system laccase. The note with it: 1000 mg/L opioid, 10 Units laccase per ml, NaPi Buffer pH 7 50 mM.

Take `CN1CC[C@]23c4c5ccc(O)c4O[C@H]2C(=O)CC[C@H]3[C@H]1C5` [hydromorphone]: the “oxygen concentration / laccase activity” value was “showed laccase activity”.
